Molecular target: IgG1 Fc Fc (Homo sapiens, UniProt P01857 = IgG part)
Experiment: SPR

B1: gp34-M (protein)
chain: SSSNAVEPTKKPLKLANYRATCEDRTRTLVTRLNTSHHSVVWQRYDIYSRYMRRMPPLCIITDAYKETTHQGGATFTCTRQNLTLYNLTVKDTGVYLLQDQYTGDVEAFYLIIHPRSFCRALETRRCFYPGPGRVVVTDSQEADRAIISDLKRQWSGLSLHCAWVSGLMIFVGALVICFLRSQRIGEQDAEQLRTDLDTEPLLLTVDGDLE
With B1 as the binder, how does the Kd read?
Its Kd is 7.3 nM.
